Data on 1 compound can be found in ChEMBL document CHEMBL4138209, “Inhibitory effects and structural insights for a novel series of coumarin-based compounds that selectively target human CA IX and CA XII carbonic anhydrases” (Eur J Med Chem, 2018).

By UniProt entry, the sequences of proteins in these tests, tags left out. Where a name states a change or a piece, a line headed by the entry shows the natural chain unless it says otherwise.
UniProt P00915: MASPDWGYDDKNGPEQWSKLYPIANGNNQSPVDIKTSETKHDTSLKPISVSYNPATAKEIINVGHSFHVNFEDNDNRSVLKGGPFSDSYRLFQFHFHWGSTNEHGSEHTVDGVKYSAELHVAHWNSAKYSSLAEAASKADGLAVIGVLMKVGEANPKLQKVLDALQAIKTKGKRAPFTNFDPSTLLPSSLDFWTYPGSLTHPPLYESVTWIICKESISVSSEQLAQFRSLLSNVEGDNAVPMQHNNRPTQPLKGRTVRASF

This assay concerns the target Carbonic anhydrase 1 (Homo sapiens, UniProt P00915). The experiment in a line: Inhibition of human carbonic anhydrase 1 incubated for 15 mins prior to testing by stopped-flow CO2 hydration assay.

For the compound `O=c1ccc2ccc(O)cc2o1` [UMBELLIFERONE], the Ki was more than 10 µM.

What is called Ki is the dissociation constant of the complex between target and ligand, obtained from inhibition or displacement.
